Measurements published in patent publication US20250235547A1, “ANTIBODY-DRUG CONJUGATE” (UBE Corporation, priority 2022, published 2025).

Assays:
[1] = Pharmacokinetic test (serum trastuzumab residual rate); assay type: in vivo; settings: female BALB/c mouse, intravenous; 3 days vs 5 minutes after administration
Text: After a prescribed time period, the blood was collected from the jugular vein or abdominal vein, and centrifuged to prepare a serum. The resulting serum was cryopreserved until the measurement.

[2] = test system: HER2-positive human gastric cancer cell line (NCI-N87); experiment: Growth inhibition test of HER2-positive human gastric cancer cell line (NCI-N87); assay type: cell-based; settings: NCI-N87, treatment concentration 100 ng/mL, 6 days
Protocol: NCI-N87 is generally used as a HER2-overexpressing cell line (Clin Cancer Res; 22(20) Oct. 15, 2016). NCI-N87 (ATCC, CRL-5822) was cultured in RPMI 1640 Medium (ATCC Modification)(manufactured by Thermo Fisher Scientific, A10491-01) containing 10% fetal bovine serum (manufactured by Corning Inc., 35-011-CV) and 1% penicillin/streptomycin (manufactured by Thermo Fisher Scientific, 15140-122). The cells were seeded to a 96 well plate (manufactured by Corning Inc., 353377) at 1.0×10^3 cells/100 μL/well. […] The cells were cultured under 5% CO2 at 37° C. for 6 days, then CellTiter-Glo (manufactured by Promega, G9241) was added thereto at 100 μL/well, and a microplate reader (FlexStation 3, manufactured by Molecular Device, LLC) was used to measure the luminescence amount of each well.
The growth inhibition rate (%) was calculated by the following equation.
[formula] • a: average luminescence amount in vehicle-treated well (n=3) • b: average luminescence amount in test compound-treated well (n=3) • c: average luminescence amount before test compound treatment (n=3)

With Trastuzumab the “Serum trastuzumab residual rate after 3 days from administration (%)” value [1] was 21 to 33% and the “Cell growth inhibitory activity (growth inhibition rate)” value [2] was 14 to 35%.
